Measured values published in patent US9353141B2, “Galectoside inhibitors of galectins” (GALECTO BIOTECH AB, priority 2012, dated 2016).

Amino acid sequences for entries named in this document (tags omitted). Residues count along the entry.
UniProt P47929, whole entry, species assumed: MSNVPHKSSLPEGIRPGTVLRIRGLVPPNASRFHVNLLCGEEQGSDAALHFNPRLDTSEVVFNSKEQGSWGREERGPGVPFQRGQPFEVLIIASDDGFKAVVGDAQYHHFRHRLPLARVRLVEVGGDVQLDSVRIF
UniProt O00182, 17-148 limits assumed, species assumed: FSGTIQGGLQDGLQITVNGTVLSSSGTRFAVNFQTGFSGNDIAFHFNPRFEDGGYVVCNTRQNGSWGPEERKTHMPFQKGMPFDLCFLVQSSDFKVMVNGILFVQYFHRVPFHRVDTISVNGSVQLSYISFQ
UniProt O00182, 227-355 limits assumed, species assumed: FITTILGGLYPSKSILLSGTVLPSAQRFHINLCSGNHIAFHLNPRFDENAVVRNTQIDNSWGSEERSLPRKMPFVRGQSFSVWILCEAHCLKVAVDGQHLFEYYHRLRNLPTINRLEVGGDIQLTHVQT
UniProt P09382, whole entry, species assumed: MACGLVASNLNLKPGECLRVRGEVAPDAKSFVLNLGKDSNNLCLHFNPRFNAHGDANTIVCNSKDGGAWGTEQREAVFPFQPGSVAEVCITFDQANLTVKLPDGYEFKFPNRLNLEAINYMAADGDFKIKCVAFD

Tests used:
Assay in all cases: Fluorescence polarization-based galectin inhibition assay
[1] = target: galectin-7 (Homo sapiens, UniProt P47929)
[2] = target: galectin-9 (N-terminal domain) (Homo sapiens, UniProt O00182)
[3] = target: galectin-9 (C-terminal domain) (Homo sapiens, UniProt O00182)
[4] = target: galectin-1 (Homo sapiens, UniProt P09382)

OC[C@H]1O[C@@H](S[C@@H]2O[C@H](CO)[C@H](O)[C@H](O)[C@H]2O)[C@H](O)[C@@H](O)[C@H]1O [thiodigalactoside, reference compound]
Kd [1]: 160 µM
Kd [2]: 38 µM
Kd [3]: 44 µM
Kd [4]: 24 µM
